Results published in patent publication US5798372A, “Method for preventing onset of restenosis after angioplasty employing a retinoid” (Allergan, priority 1997, dated 1998).

Tested on: RAR and RXR receptor
Assay: RAR vs RXR agonist activity (retinoid selectivity)
Format: biochemical
Settings: RAR selective agonist preferably has RAR vs RXR activity ratio of at least 5; for SELECTIVITY: Table 2; for RETINOID SELECTIVITY: Table 3

CC1=C(/C=C/C(C)=C/C=C/C(C)=C/C(=O)O)C(C)(C)CCC1 [AGN 100335, (E)-3,7-dimethyl-9-(2,6,6-trimethyl-1-cyclohexen-1-yl)-2,4,6,8-nonatetraenoic acid]
SELECTIVITY: RAR
RETINOID SELECTIVITY: RAR

CC1=C(/C=C/C(C)=C/C=C/C(C)=C\C(=O)O)C(C)(C)CCC1 [AGN 190013, (2Z,4E,6E,8E)-3,7-dimethyl-9-(2,6,6-trimethyl-1-cyclohexen-1-yl)-2,4,6,8-nonatetraenoic acid]
SELECTIVITY: RAR
RETINOID SELECTIVITY: RAR

CC1=C(/C=C/C(C)=C\C=C\C(C)=C\C(=O)O)C(C)(C)CCC1 [AGN 192013, (2E,4E,6Z,8E)-3,7-dimethyl-9-(2,6,6-trimethyl-1-cyclohexen-1-yl)-2,4,6,8-nonatetraenoic acid]
SELECTIVITY: PAN AGONIST
RETINOID SELECTIVITY: PANAGONIST
